What was measured:
human μ-opiate receptor = human μ-opiate receptor (Homo sapiens, UniProt P35372); experiment: μ binding, [3H]-naloxone displacement, CHO-K1 membrane preparation; settings: read-out: Ki (μ-OR)
Sprague-Dawley rats [1] = experiment: Chung model: mononeuropathic pain after spinal nerve ligature; format: in vivo, rat; settings: for ED50 chronic: rat; for ED50 chronic / Enhancement of action factor: i.v.; for Enhancement of action factor: ED50 tail flick rat / ED50 Chung rat; for analgesic action after antagonization with naloxone or B11: 30 min; for analgesic potency in the neuropathic pain model relative to the acute pain model (factor): neuropathic pain models (Chung, Bennett) vs tail flick
rats = experiment: Place preference (place conditioning) in rats; format: in vivo, rat
Sprague-Dawley rats [2] = settings: 25% intensity of thermal radiation

Sequences of proteins named here, by UniProt entry; tags and fusion partners are left off.
UniProt P35372, whole entry: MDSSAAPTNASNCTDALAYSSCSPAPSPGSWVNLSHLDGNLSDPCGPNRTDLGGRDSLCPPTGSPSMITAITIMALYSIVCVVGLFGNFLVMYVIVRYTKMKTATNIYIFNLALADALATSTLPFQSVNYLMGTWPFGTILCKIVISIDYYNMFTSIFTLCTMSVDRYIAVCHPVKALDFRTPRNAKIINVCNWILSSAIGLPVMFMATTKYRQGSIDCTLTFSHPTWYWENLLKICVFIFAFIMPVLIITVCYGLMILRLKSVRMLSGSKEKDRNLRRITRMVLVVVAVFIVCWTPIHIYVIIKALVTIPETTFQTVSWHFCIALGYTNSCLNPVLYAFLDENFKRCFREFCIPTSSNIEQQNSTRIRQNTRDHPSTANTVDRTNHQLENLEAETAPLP

SMILES | Ki (human μ-opiate receptor) | ED50 chronic (Sprague-Dawley rats [1]; Chung model) | Enhancement of action factor (Sprague-Dawley rats [1]) | analgesic action after antagonization with naloxone or B11 (Sprague-Dawley rats [1]; Chung model) | also measured
CN(C)C1(c2ccsc2)CCC2(CC1)OCCc1c2[nH]c2ccccc12 (centres unmarked) | 0.1 nM | – | – | – | –
CN(C)[C@]1(c2ccccc2)CC[C@]2(CC1)OCCc1c3ccccc3[nH]c12 | – | 0.8 µg/kg | 2.5 x | – | –
CN(C)C1(c2cccs2)CCC2(CC1)OCCc1c2[nH]c2ccccc12 (centres unmarked) | 0.3 nM | 1 µg/kg | 2 x | – | threshold dose for inducing place preference relative to analgesically semimaximal active dose (rats): in the range of or above the analgesically semimaximal active dose; transient (opioid-induced) hyperalgesia after acute administration (Sprague-Dawley rats [2]): no transient hyperalgesia was observed
CNC1(c2cccs2)CCC2(CC1)OCCc1c2[nH]c2ccc(F)cc12 (centres unmarked) | – | 8 µg/kg | 8 x | analgesic action of the non-antagonized component in each case remains in place | –
CN(C)C1(c2cccs2)CCC2(CC1)OCCc1c2[nH]c2ccc(F)cc12 (centres unmarked) | 1 nM | 4 µg/kg | 2.5 x | analgesic action of the non-antagonized component in each case remains in place | threshold dose for inducing place preference relative to analgesically semimaximal active dose (rats): in the range of or above the analgesically semimaximal active dose
CNC1(c2ccccc2)CCC2(CC1)OCCc1c2[nH]c2ccccc12 (centres unmarked) | 0.4 nM | – | – | – | –
CNC1(c2cccs2)CCC2(CC1)OCCc1c2[nH]c2ccccc12 (centres unmarked) | 0.5 nM | – | – | – | transient (opioid-induced) hyperalgesia after acute administration (Sprague-Dawley rats [2]): no transient hyperalgesia was observed
CNC1(c2ccccc2)CCC2(CC1)OCCc1c2[nH]c2ccc(F)cc12 (centres unmarked) | – | 9 µg/kg | 12 x | analgesic action of the non-antagonized component in each case remains in place | analgesic potency in the neuropathic pain model relative to the acute pain model (factor) (Sprague-Dawley rats [1]): 10
CN1CC[C@]23c4c5ccc(O)c4O[C@H]2C(=O)CC[C@H]3[C@H]1C5 | – | 220 µg/kg | – | – | –
O=C1NCN(c2ccccc2)C12CCN(C1Cc3cccc4cccc1c34)CC2 (centres unmarked) | 23 nM | – | – | – | –
CN(C)C1(c2ccccc2)CCC2(CC1)OCCc1c2[nH]c2ccc(F)cc12 (centres unmarked) | – | 1 µg/kg | 7 x | remains in place even at a very high dosage of B11 | maximum, purely antiallodynic action (Sprague-Dawley rats [1]; Chung model, ipsilateral paw, 1 μg/kg i.v.): 56 % MPE; antiallodynic efficacy relative to fentanyl (factor) (Sprague-Dawley rats [1]; neuropathic animals): approx. 10; analgesic potency in the neuropathic pain model relative to the acute pain model (factor) (Sprague-Dawley rats [1]): approximately ten times more potent against neuropathic pain than against acute pain
CN(C)C1(c2ccsc2)CCC2(CC1)OCCc1c2[nH]c2ccc(F)cc12 (centres unmarked) | 1.3 nM | – | – | – | –
CNC1(c2ccccc2)CCC2(CC1)OCCc1c2[nH]c2ccc(OC)cc12 (centres unmarked) | – | 363 µg/kg | 0.9 x | – | analgesic potency in the neuropathic pain model relative to the acute pain model (factor) (Sprague-Dawley rats [1]): no longer any more active in the neuropathic model than it is in the acute pain model

From US20080125475A1 (priority 2006, published 2008)
